{
  "sequences": {"note": "The chains behind the UniProt entries cited, without tags or fusion partners. Residues count along the entry.", "UniProt P23458, 866-1154": "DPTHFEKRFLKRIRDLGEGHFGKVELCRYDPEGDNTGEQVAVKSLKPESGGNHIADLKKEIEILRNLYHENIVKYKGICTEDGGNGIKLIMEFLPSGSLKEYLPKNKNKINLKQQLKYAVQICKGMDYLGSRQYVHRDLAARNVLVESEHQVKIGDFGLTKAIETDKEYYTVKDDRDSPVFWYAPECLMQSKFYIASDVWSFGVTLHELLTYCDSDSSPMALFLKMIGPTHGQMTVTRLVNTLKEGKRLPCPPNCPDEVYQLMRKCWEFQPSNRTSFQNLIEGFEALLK"},
  "source": "patent US11028093B2",
  "about": "“4,6-substituted-pyrazolo[1,5-a]pyrazines as janus kinase inhibitors” (Array BioPharma Inc., priority 2014, dated 2021)",
  "target": "JAK1 (Homo sapiens (Human), UniProt P23458)",
  "assay": "JAK1 Inhibition Assay (Omnia kinase fluorescence peptide substrate assay, 1 mM ATP)",
  "type": "biochemical",
  "conditions": "read-out: JAK1 Enzyme IC50 1 mM ATP, averaged IC50 ranges",
  "excerpt": "The assays described in Examples A, B, C and D for the determination of Tyk2, JAK1, JAK2 and JAK3 kinase activity, respectively, utilized the Omnia® Kinase fluorescence peptide substrate-based technology (Invitrogen). The specific components of the assay mixture are described in Examples A, B, C and D. In these assays, Mg^2+ is chelated upon phosphorylation of the Omnia peptide by the kinase to form a bridge between the chelation-enhanced fluorophore Sox and the phosphate, resulting in an increase in fluorescence emission at 485 nm when excited at […]. The reactions were therefore read at excitation 360 nm and emission was measured at 485 nm every 50 seconds for 45 minutes using a PerkinElmer EnVision Multilabel Plate Reader.\nThe final buffer conditions for Tyk2, JAK1, JAK2, and JAK3 assays were as follows: 25 mM HEPES, pH 7.4, 10 mM MgCl2, 0.01% Triton X-100 and 1 mM DTT.\nTwo-μL aliquots of these were transferred to a fresh plate for a ten-fold intermediate dilution with assay buffer. Five-μL aliquots of the diluted compounds were then transferred to 20-μL of assay mixtures described in Examples A, B, C and D for a final concentration of DMSO of 2%. […] For each plate, percent of control (POC) values were calculated for each well according to the following equation: […]",
  "data": [
    {"substance": "(R)-3-(4-(4-(1-((S)-2,2-dimethylcyclopentyl)-1H-pyrazol-4-yl)pyrazolo[1,5-a]pyrazin-6-yl)-1H-pyrazol-1-yl)propane-1,2-diol [Example 95]", "values": [
      {"measurement": "IC50", "value": "1 to 10", "unit": "µM"}
    ]}
  ]
}
